Data set [1] can be described thus: Chemical stability in solution, 7 days storage, HPLC-UV (% remaining peptide). Format: physicochemical. As to conditions: 7 days in solution, expressed as % remaining peptide. How it is done:
After that time course, the sample was centrifuged for 20 min at 4000 rpm and the supernatant was analysed with HPLC-UV.
For determination of the amount of the remaining peptide, the peak areas of the target compound at t0 and t7 were compared, resulting in “% remaining peptide”, following the equation % remaining peptide=[(peak area peptide t7)×100]/peak area peptide t0.
The chemical stability is expressed as “% remaining peptide”.

Another data set is described as follows: physchem. As to conditions: buffer system.

Values after ≈ are worked out from the molar mass of the structure shown.

With `CC[C@H](C)[C@H](NC(=O)[C@H](CC(C)C)NC(=O)[C@H](Cc1c[nH]c2ccccc12)NC(=O)[C@H](CCC(=O)O)NC(=O)[C@@H](NC(=O)[C@H](Cc1ccccc1)NC(=O)[C@H](CC(=O)O)NC(=O)[C@H](CCCCN)NC(=O)[C@H](C)NC(=O)[C@H](CC(C)C)NC(=O)[C@H](CCC(N)=O)NC(=O)[C@H](CCC(=O)O)NC(=O)[C@H](CC(=O)O)NC(=O)[C@H](CC(C)C)NC(=O)[C@H](CC(C)C)NC(=O)[C@H](CCCCN)NC(=O)[C@H](CO)NC(=O)[C@H](CC(C)C)NC(=O)[C@H](CC(=O)O)NC(=O)[C@H](CO)NC(=O)[C@@H](NC(=O)[C@H](Cc1ccccc1)NC(=O)[C@@H](NC(=O)CNC(=O)[C@H](Cc1c[nH]cn1)NC(=O)[C@@H](CO)NC(=O)[C@@H](N)Cc1c[nH]cn1)[C@@H](C)O)[C@@H](C)O)[C@@H](C)CC)C(=O)N[C@@H](C)C(=O)NCC(=O)NCC(=O)N1CCC[C@H]1C(=O)N[C@@H](CO)C(=O)N[C@@H](CO)C(=O)NCC(=O)N[C@@H](C)C(=O)N1CCC[C@H]1C(=O)N1CCC[C@H]1C(=O)N1CCC[C@H]1C(=O)N[C@@H](CO)C(N)=O` [SEQ ID NO 8, H-dSer-HGTFTSDLSKLLDEQLAKDFIEWLIAGGPSSGAPPPS-NH2], the “Stability pH4.5” value in data set [1] (pH 4.5, 25° C.) turned out to be 100. In data set [1] (pH 7.4, 25° C.), the “Stability pH7.4” value was found to be 77.5. Also, the solubility at 2 h in “physchem” (pH 4.5) was 934 µg/mL (≈ 227 µM); in the data set “physchem” (pH 7.4) it was more than 1000 µg/mL.
Turning to `CC[C@H](C)[C@H](NC(=O)[C@H](CC(C)C)NC(=O)[C@H](Cc1c[nH]c2ccccc12)NC(=O)[C@H](CCC(=O)O)NC(=O)[C@@H](NC(=O)[C@H](Cc1ccccc1)NC(=O)[C@H](CC(=O)O)NC(=O)[C@H](CCCCN)NC(=O)[C@H](C)NC(=O)[C@H](CCCNC(=N)N)NC(=O)[C@H](CCC(N)=O)NC(=O)[C@H](CCC(=O)O)NC(=O)[C@H](CC(=O)O)NC(=O)[C@H](CC(C)C)NC(=O)[C@H](CC(C)C)NC(=O)[C@H](CCCCN)NC(=O)[C@H](CO)NC(=O)[C@H](CC(C)C)NC(=O)[C@H](CC(=O)O)NC(=O)[C@H](CO)NC(=O)[C@@H](NC(=O)[C@H](Cc1ccccc1)NC(=O)[C@@H](NC(=O)CNC(=O)[C@H](CCC(N)=O)NC(=O)[C@@H](CO)NC(=O)[C@@H](N)Cc1c[nH]cn1)[C@@H](C)O)[C@@H](C)O)[C@@H](C)CC)C(=O)N[C@@H](C)C(=O)NCC(=O)NCC(=O)N1CCC[C@H]1C(=O)N[C@@H](CO)C(=O)N[C@@H](CO)C(=O)NCC(=O)N[C@@H](C)C(=O)N1CCC[C@H]1C(=O)N1CCC[C@H]1C(=O)N1CCC[C@H]1C(=O)N[C@@H](CO)C(N)=O` [compound 5], the “Stability pH4.5” value in data set [1] (pH 4.5, 40° C.) is 92.6. Also, in data set [1] (pH 7.4, 40° C.), the “Stability pH7.4” value is 96.5. The solubility at 2 h in “physchem” (pH 4.5) and in the data set “physchem” (pH 7.4) was more than 1000 µg/mL each time.

The solubility is the concentration that dissolves in the medium under given conditions.

These data come from patent US9694053B2, “Dual GLP-1/glucagon receptor agonists” (Sanofi, priority 2013, dated 2017).
